Target: purified catalytic domain of recombinant human TACE (rhTACEc) (Homo sapiens, UniProt P78536, N452Q/S266A)
Assay: TACE kinetic assay: cleavage of internally quenched peptide substrate SPDL-3 (fluorescence)
[1] = Ki (nM), TACE inhibitory activity, class letters
[2] = Ki (nM), Specific TACE inhibitory activity (Ki values)
[3] = Ki (nM), TABLE 6000, Ki printed as class symbols A-D
[4] = Ki Rating, TACE inhibitory activity, Table 3000

By UniProt entry, the sequences of proteins in these tests, tags left out. Residues count along the entry.
UniProt P78536, 215-477 S266A/N452Q limits assumed: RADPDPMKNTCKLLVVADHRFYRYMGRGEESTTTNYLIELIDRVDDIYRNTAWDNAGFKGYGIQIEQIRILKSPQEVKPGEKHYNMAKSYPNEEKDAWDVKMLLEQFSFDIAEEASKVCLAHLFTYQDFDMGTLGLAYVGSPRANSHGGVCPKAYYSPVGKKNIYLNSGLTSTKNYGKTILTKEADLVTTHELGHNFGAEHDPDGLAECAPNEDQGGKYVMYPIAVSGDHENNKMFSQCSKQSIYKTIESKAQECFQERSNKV

SMILES	Ki [3] [nM]	Ki [4] [nM]	other results
O=C1NC(=O)[C@](CN2Cc3ccc(F)cc3C2=O)(c2ccc(-c3ccnc(O)c3)cc2)N1 [Compound 115]	–	–	Ki [1]: < 10 nM
CC#CCOc1ccc2c(c1)C(=O)N(C[C@@]1(c3ccc(F)cc3)NC(=O)NC1=O)C2 [Compound 203]	–	–	Ki [2]: 0.23 nM; Ki [1]: < 10 nM
O=C1NC(=O)C(CN2Cc3ccc(F)cc3C2=O)(c2ccc3cccnc3c2)N1 (stereo not shown) [Compound 262]	–	–	Ki [2]: 4.91 nM; Ki [1]: < 10 nM
COc1ccc2c(c1)CN(C[C@@]1(c3ccc(-c4cnccn4)cc3)NC(=O)NC1=O)C2=O [Compound 4031]	–	< 10	–
CC#CCOc1ccc2c(c1)C(=O)N(C[C@@]1(c3ccc(-c4cnn(CC(C)C)c4)cc3)NC(=O)NC1=O)C2 [Compound 6019]	–	< 10	–
COc1ccc2c(c1)CN(CC1(C3CCN(C4CCNCC4)CC3)NC(=O)NC1=O)C2=O (stereo not shown) [Compound 273]	–	–	Ki [1]: 100 to 1000 nM
CC#CCOc1cc2c(cc1Cl)C(=O)N(CC1(C)NC(=O)NC1=O)C2 (stereo not shown) [Compound 5008]	–	10 to 100	–
COc1ccc2c(c1)C(=O)N(C[C@@]1(c3cc4nc(Br)ccc4o3)NC(=O)NC1=O)C2 [Compound 9274]	< 10	–	–
O=C1NC(=O)C(CCc2cccnc2)(CN2Cc3ccc(F)cc3C2=O)N1 (stereo not shown) [Compound 9245]	10 to 100	–	–
COc1ccc2c(c1)C(=O)N(C[C@@]1(c3cc4c(cc(C)c[n+]4[O-])o3)NC(=O)NC1=O)C2 [Compound 9933]	< 10	–	–
COc1cc(-c2ccc([C@]3(CN4Cc5ccc(F)cc5C4=O)NC(=O)NC3=O)cc2)ccn1 [Compound 122]	–	–	Ki [1]: < 10 nM
COc1ccc2c(c1)C(=O)N(C[C@@]1(c3ccc(Oc4cncnc4)cc3)NC(=O)NC1=O)C2 [Compound 9618]	< 10	–	–
COc1ccc2c(c1)CN(CC1(CNC3CCCC3)NC(=O)NC1=O)C2=O (stereo not shown) [Compound 36]	–	–	Ki [1]: 10 to 100 nM
O=C1NC(=O)[C@](CN2Cc3ccc(F)cc3C2=O)(c2ccc(-c3ccc(C(F)(F)F)cc3)cc2)N1 [Compound 127]	–	–	Ki [1]: 10 to 100 nM
COc1ccc2c(c1)C(=O)N(C[C@@]1(c3ccc(-c4cnn(CC5CC5)c4)cc3)NC(=O)NC1=O)C2 [Compound 5006]	–	< 10	Ki [2]: 0.5 nM
COc1ccc2c(c1)C(=O)N(C[C@@]1(c3ccc(OC(F)F)cc3)NC(=O)NC1=O)C2 [Compound 9624]	< 10	–	–
COc1ccc2c(c1)C(=O)N(C[C@@]1(c3ccc(-c4ncnc5ncn(C(C)C)c45)cc3)NC(=O)NC1=O)C2 [Compound 3040]	–	< 10	–
CN(C)c1cc2c(cc1F)C(=O)N(CC1(c3ccc(F)cc3)NC(=O)NC1=O)C2 (stereo not shown) [Compound 2030C]	–	100 to 1000	–
COc1ccc2c(c1)C(=O)N(C[C@]1(c3ccc(-c4cnn(C)c4C(F)(F)F)cc3)NC(=O)NC1=O)C2 [Compound 3018]	–	10 to 100	–
COc1ccc2c(c1)C(=O)N(C[C@@]1(c3ccc(OCC4CCOCC4)cc3)NC(=O)NC1=O)C2 [Compound 9626]	< 10	–	–
CC1(CN2Cc3cc(OCC(F)(F)F)ccc3C2=O)NC(=O)NC1=O (stereo not shown) [Compound 12]	–	–	Ki [1]: 10 to 100 nM
COc1ccc2c(c1)C(=O)N(C[C@@]1(c3cn(-c4ccc(F)cc4)nn3)NC(=O)NC1=O)C2 [Compound 9267]	< 10	–	–
COc1ccc2c(c1)C(=O)N(C[C@@]1(/C=C/c3ccc(F)cc3)NC(=O)NC1=O)C2 [Compound 9237]	< 10	–	–
Cc1cc(COc2ccc3c(c2)C(=O)N(CC2(C)NC(=O)NC2=O)C3)c2ccccc2n1 (stereo not shown) [Compound 193]	–	–	Ki [1]: < 10 nM

Further lines, with some results ahead:

Ki [3] [nM]	Ki [4] [nM]	SMILES	other results
< 10	–	COc1ccc2c(c1)C(=O)N(C[C@@]1(c3ccc(-c4cnn5ccccc45)cc3)NC(=O)NC1=O)C2 [Compound 9708]	–
< 10	–	COc1ccc2c(c1)C(=O)N(C[C@@]1(c3ccc(Oc4ccccn4)cc3)NC(=O)NC1=O)C2 [Compound 9613]	–
–	< 10	COc1ccc2c(c1)C(=O)N(C[C@@]1(c3ccc(-c4c(N)n[nH]c4C(F)(F)F)cc3)NC(=O)NC1=O)C2 [Compound 4032]	–
< 10	–	COc1ccc2c(c1)C(=O)N(C[C@@]1(c3nc(-c4ccc(F)cc4)cs3)NC(=O)NC1=O)C2 [Compound 9005]	–
–	< 10	COc1ccc2c(c1)C(=O)N(C[C@@]1(c3ccc(-c4cc(C)c5nn(C(C)C)cc5c4)cc3)NC(=O)NC1=O)C2 [Compound 7016]	Ki [2]: 3.08 nM
–	10 to 100	Cc1nc(-c2cccc(-c3ccc([C@]4(CN5Cc6ccc(F)cc6C5=O)NC(=O)NC4=O)cc3)c2)cs1 [Compound 3022]	–
–	< 10	COc1ccc2c(c1)C(=O)N(C[C@@]1(c3ccc(-c4ccc5nc(C)ccc5c4)cc3)NC(=O)NC1=O)C2 [Compound 3010]	Ki [2]: 5 nM
–	100 to 1000	Cc1onc(N)c1-c1ccc([C@@]2(CN3Cc4ccc(O)cc4C3=O)NC(=O)NC2=O)cc1 [Compound 4019]	–
< 10	–	COc1ccc2c(c1)C(=O)N(C[C@@]1(c3ccc(-c4nccc(C(F)(F)F)n4)cc3)NC(=O)NC1=O)C2 [Compound 9757]	–
–	< 10	O=C1NC(=O)[C@](CN2Cc3ccc(OCC#CCO)cc3C2=O)(c2ccc(-c3cccc4cccnc34)cc2)N1 [Compound 3007]	–
–	< 10	O=C1NC(=O)[C@](CN2Cc3ccc(O)cc3C2=O)(c2ccc(-c3cnn(CC4CC4)c3)cc2)N1 [Compound 5005]	–
–	10 to 100	O=C1NC(=O)C(CN2Cc3ccc(F)cc3C2=O)(c2cccnc2)N1 (stereo not shown) [Compound 8008]	–
–	100 to 1000	O=C1NC(=O)[C@](CN2Cc3ccc(F)cc3C2=O)(c2ccc(-c3cc(C(F)(F)F)nc4c(C(F)(F)F)cccc34)cc2)N1 [Compound 8005]	–
–	100 to 1000	O=C1CSc2c(cccc2-c2ccc([C@@]3(CN4Cc5ccc(F)cc5C4=O)NC(=O)NC3=O)cc2)N1 [Compound 7007]	–
